Data on one compound can be found in paper PMC11707430, “Novel antibiotics against Staphylococcus aureus without detectable resistance by targeting proton motive force and FtsH” (MedComm, 2025).

The chains behind the UniProt entries cited, without tags or fusion partners. Where a name states a change or a piece, a line headed by the entry shows the natural chain unless it says otherwise.
UniProt Q12809: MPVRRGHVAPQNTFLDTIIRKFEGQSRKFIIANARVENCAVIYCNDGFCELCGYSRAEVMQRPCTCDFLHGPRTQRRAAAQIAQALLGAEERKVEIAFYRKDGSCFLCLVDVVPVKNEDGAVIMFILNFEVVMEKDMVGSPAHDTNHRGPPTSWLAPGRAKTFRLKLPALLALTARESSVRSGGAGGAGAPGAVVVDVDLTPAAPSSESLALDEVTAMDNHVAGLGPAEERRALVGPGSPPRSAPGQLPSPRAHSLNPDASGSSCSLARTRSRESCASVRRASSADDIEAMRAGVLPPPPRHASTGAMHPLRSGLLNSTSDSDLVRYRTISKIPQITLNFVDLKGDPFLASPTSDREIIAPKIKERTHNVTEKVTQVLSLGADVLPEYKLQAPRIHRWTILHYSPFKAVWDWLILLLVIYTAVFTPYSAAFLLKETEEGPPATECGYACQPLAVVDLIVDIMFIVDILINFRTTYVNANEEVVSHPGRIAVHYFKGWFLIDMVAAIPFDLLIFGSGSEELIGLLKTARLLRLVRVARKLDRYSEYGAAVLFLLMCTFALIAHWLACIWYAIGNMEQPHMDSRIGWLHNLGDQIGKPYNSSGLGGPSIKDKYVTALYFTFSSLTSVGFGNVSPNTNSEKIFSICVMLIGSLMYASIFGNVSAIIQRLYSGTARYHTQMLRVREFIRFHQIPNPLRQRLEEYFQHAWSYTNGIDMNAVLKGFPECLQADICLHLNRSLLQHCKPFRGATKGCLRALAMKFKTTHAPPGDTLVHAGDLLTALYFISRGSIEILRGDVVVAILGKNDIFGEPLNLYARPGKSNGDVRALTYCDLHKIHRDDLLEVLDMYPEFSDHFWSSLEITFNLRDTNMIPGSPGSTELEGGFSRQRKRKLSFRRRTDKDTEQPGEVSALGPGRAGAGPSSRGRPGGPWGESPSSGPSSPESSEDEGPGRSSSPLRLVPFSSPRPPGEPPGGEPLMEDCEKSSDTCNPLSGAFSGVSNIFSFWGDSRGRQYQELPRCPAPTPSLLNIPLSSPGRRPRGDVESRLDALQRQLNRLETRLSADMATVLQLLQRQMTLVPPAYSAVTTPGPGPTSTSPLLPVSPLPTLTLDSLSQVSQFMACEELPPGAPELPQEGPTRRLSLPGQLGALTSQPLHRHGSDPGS

This data set has as its target T1, hERG (Homo sapiens, UniProt Q12809).
T1 construct: expressed in transfected cells; host or cells: HEK293
The experiment in a line: hERG patch clamp. Format: cell-based. As to conditions: positive control. The procedure:
hERG. hERG channels expressed HEK293 cell line was cultured in DMEM at 37℃ with 10% FBS to ~70% of log phase. Then, the cells were washed with PBS and digested with trypsin. After incubation at 37 ℃ for 2-3 min, the cells were washed again and adjusted to ~ 2×10^3/mL. The patch clamp detection experiment was performed after the cells attached to the cell wall. The extracellular fluid was prepared as 137 mM NaCl,1 mM MgCl2‧6H2O, 4 mM KCl,1.8 mM CaCl2‧2H2O, 10 mM D-Glucose, 10 mM HEPES, pH=7.4. And the intracellular fluid was prepared as 140 mM KCl,10 mM EGTA, 5 mM MgCl2‧6H2O, 10 mM HEPES, 5 mM Mg-ATP, pH=7.2. The current data was collected by using Pathmaster software. And the peak current inhibition rate was calculated as: (1−Peak tail current compoundPeak tail current vehicle). The concentration-effects were fitted by the Hill equation: I=Imax∙(1/[1+(C1/2/[C])^h), where [C], C1/2, and h represented the drug concentration, half inhibitory concentration (IC50), Hill coefficient, respectively^19.
In general terms: Block of hERG is tested as a sign of cardiac risk.

On to `COc1cc(N)c(Cl)cc1C(=O)NC1CCN(CCCOc2ccc(F)cc2)CC1OC` (stereo not shown) [cisapride, reference compound], for which the “hERG inhibition (in words)” value is reported as “obvious inhibitory effect”.
